Reference: EP0383919A1, “STAUROSPORIN DERIVATIVES” (KYOWA HAKKO KOGYO CO., LTD., priority 1988, dated 1989)
≈ marks a conversion by molar mass, not a printed value.

How the values were obtained:
CoLo 320DM cells = experiment: CoLo 320DM cell growth inhibition assay; type: cell-based; conditions: 50% cell growth inhibition concentration; cell counting with a microcell counter; tested form: free base; approx. 1:1 mixture of diaste
HeLa S3 cells = experiment: HeLa S3 cell growth inhibition assay; type: cell-based; conditions: 50% growth inhibition concentration; neutral red staining, absorbance at 550 nm; 72 hours incubation after washing; tested form: free base; approx. 1:1 mixture of diaste

**Q.** Which “IC50 CoLo 320DM” value (CoLo 320DM cells) does the source give for `CCSC1NC(=O)c2c1c1c3ccccc3n3c1c1c2c2ccccc2n1C1CC(NC)C(OC)C3(C)O1` (centres unmarked) here?
**A.** Its value is 0.088 µg/mL (≈ 0.167 µM).

**Q.** And the “IC50 HeLa S3” value (HeLa S3 cells)?
**A.** Its value is 0.16 µg/mL (≈ 0.304 µM).
